# Literature values in EP1156371A2, “Replenishing method of planographic printing plate developer” (FUJI PHOTO FILM CO., LTD., priority 2000, dated 2001).
# Conditions: dissociation constant of weak acid, aqueous solution
smiles,measurement,value
OCC(Cl)(Cl)Cl [trichloroethanol],pKa,12.24
